In this test the test system is anti-NGF mice (AD11). In words: Cholinergic deficit of anti-NGF mice: ChAT immunohistochemistry, cholinergic neurones in the basal forebrain. The following applies: i.p., 15 days, doses of Table 6.

On to `CCN(C)C(=O)Oc1cccc([C@H](C)N(C)C)c1` [Rivastigmine, reference compound], for which the “recovery of the cholinergic deficit (number of cholinergic neurones in the basal forebrain)” value was “did not allow the complete recovery of the cholinergic deficit”.

For the origin of these results see patent US7307083B2, “Tetrahydro-acridine and dithiolane derivatives” (priority 2005, dated 2007).
